Source: US20120058997A1, “IMIDAZO[1,2-B]PYRIDAZINE AND PYRAZOLO[1,5-A]PYRIMIDINE DERIVATIVES AND THEIR USE AS PROTEIN KINASE INHIBITORS” (SuperGen, Inc., priority 2006, published 2012)

Chains of the proteins cited; added tags and fusions are not shown.
UniProt P11309, whole entry: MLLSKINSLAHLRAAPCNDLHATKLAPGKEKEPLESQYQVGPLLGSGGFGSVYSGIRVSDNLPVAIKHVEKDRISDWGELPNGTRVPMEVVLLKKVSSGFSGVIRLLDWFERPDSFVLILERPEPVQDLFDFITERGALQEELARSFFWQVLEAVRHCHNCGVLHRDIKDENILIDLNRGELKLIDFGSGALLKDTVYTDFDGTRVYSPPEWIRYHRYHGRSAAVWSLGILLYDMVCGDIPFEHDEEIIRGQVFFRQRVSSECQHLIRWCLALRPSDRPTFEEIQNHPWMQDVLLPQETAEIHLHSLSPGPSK

Molecular target: Pim-1 kinase (Homo sapiens, UniProt P11309)
Assay: Promega Kinase-Glo Pim-1 kinase inhibition assay;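 also: in vitro Pim-1 reaction run 2 h at 30 °C, then leftover ATP measured by luciferase luminescence, where signal falls as kinase activity rises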
Details: IC50 on Pim1, Table X

- IC50: < 10 nM
SMILES: CO[C@H]1CC[C@H](Nc2ccc3ncc(-c4cccc(OC(F)(F)F)c4)n3n2)CC1 [Compound 8-11, 4-(trans-Methoxycyclohexyl)-3-(3-(trifluoromethoxy)phenyl)imidazo[1,2-b]pyridazin-6-amine]
